# Literature values as cited in patent US9222055B2, “High intensity fragrances” (TAKASAGO INTERNATIONAL CORPORATION, priority 2009, dated 2015).
# Read-outs that look alike come from different tables or passages of the source.
substance,measurement,setting,value
Isobornyl Cyclohexanol,Bio-Degradable,"Table 18, ingredients of Comparative Fragrance J",No
same,Bio-Degradable,"Table 19, ingredients of Comparative Fragrance K",No
